PubChem BioAssay AID1048 (The Scripps Research Institute Molecular Screening Center, 2008)
Only a part is listed here, and it is no random draw. The source made the active and inactive calls. No stated cut-off is given here; in the data, active means TR-FRET ratio above about 2000; inactive means the rest.

assay: signal artefacts in PPARgamma/SRC-3 readout – biochemical, TR-FRET ratio, artefact control for PPARgamma SRC-3 recruitment agonists (AID 1048); conditions: TR-FRET artefact counter-screen, PPARgamma/SRC-3 format; at 8 µM; hits give high values

Structure (SMILES)	TR-FRET ratio
COc1ccc(NP(C)(=O)Oc2ccccc2OC)cc1 (stereo not given)	inactive: 1760
O=[N+]([O-])c1cc([N+](=O)[O-])c(NCC2CCS(=O)(=O)C2)c([N+](=O)[O-])c1 (stereo not given)	inactive: 1610
Cc1ccccc1NP(C)(=O)Nc1ccccc1C	inactive: 1580
CC(C)c1ccc(OP(C)(=O)Nc2ccc(SC(F)(F)F)cc2)cc1 (stereo not given)	inactive: 1520
O=C(OCCN1CCN(CCOCc2ccccc2)CC1)C(O)(c1ccccc1)c1ccccc1	inactive: 1520
CCOC(=O)c1ccc(NP(C)(=O)Oc2ccc(F)cc2)cc1 (stereo not given)	inactive: 1640
COc1ccc(OP(C)(=O)Nc2ccc(SC(F)(F)F)cc2)cc1 (stereo not given)	inactive: 1380
COc1ccc(OP(C)(=O)Nc2ccccc2Br)cc1 (stereo not given)	inactive: 1760
Cc1cc(C)cc(OP(C)(=O)Nc2cccc(C(F)(F)F)c2)c1 (stereo not given)	inactive: 1800
CP(=O)(OCCOc1ccccc1)OCCOc1ccccc1	inactive: 1670
CP(=O)(Nc1ccc(Cl)cc1Cl)Oc1ccccc1 (stereo not given)	inactive: 1540
O=[N+]([O-])c1cc([N+](=O)[O-])c(Nc2ccccn2)c([N+](=O)[O-])c1	inactive: 1560
CCc1ccc(OP(C)(=O)Nc2cccnc2)cc1 (stereo not given)	inactive: 1470
COc1ccc(OP(C)(=O)Nc2ccc(Br)cc2)cc1 (stereo not given)	inactive: 1520
CN(C)C(=O)c1c([N+](=O)[O-])cc([N+](=O)[O-])cc1[N+](=O)[O-]	inactive: 1720
COc1ccccc1OP(C)(=O)Nc1ccccc1Br (stereo not given)	inactive: 1360
CCOC(=O)c1ccc(NP(C)(=O)Oc2ccc(Cl)cc2)cc1 (stereo not given)	inactive: 1460
CP(=O)(Nc1ccccc1Br)Oc1ccccc1 (stereo not given)	inactive: 1790
COc1ccccc1OP(C)(=O)Nc1ccccc1 (stereo not given)	inactive: 1570
Cc1cc(C)cc(OP(C)(=O)Nc2ccc(SC(F)(F)F)cc2)c1 (stereo not given)	inactive: 1600

Structure (SMILES)	TR-FRET ratio
Cc1cccc(C)c1OP(C)(=O)Nc1ccc(SC(F)(F)F)cc1 (stereo not given)	inactive: 1360
CP(=O)(Oc1ccccc1)OC(c1ccccc1)C(F)(F)F (stereo not given)	inactive: 1600
CCOC(=O)c1ccc(NP(C)(=O)Oc2ccc(OC)cc2)cc1 (stereo not given)	inactive: 1510
CCOP(C)(=S)SCC(=O)NC(C)C(=O)O (stereo not given)	inactive: 1750
CCN(CC)CCCOC(=O)C(O)(c1ccccc1)c1ccccc1	inactive: 1440
O=[N+]([O-])c1ccc2c(c1)C=Nc1ccccc1O2	inactive: 1690
CC(C)(C)c1ccc(OP(C)(=O)Nc2ccc(SC(F)(F)F)cc2)cc1 (stereo not given)	inactive: 1660
Cc1cccc(C)c1OP(C)(N)=O (stereo not given)	inactive: 1660
Cc1cc(C)cc(OP(C)(N)=O)c1 (stereo not given)	inactive: 1700
COc1ccccc1OP(C)(=O)Nc1cc(Cl)ccc1C (stereo not given)	inactive: 1720
COc1ccccc1OP(C)(=O)Nc1ccc(C)cc1 (stereo not given)	inactive: 1680
Cc1ccc(NP(C)(=O)Oc2ccccc2)c(C)c1 (stereo not given)	inactive: 1540
CCOC(=O)c1ccc(NP(C)(=O)Oc2ccccc2)cc1 (stereo not given)	inactive: 1300
CC1=NCCc2c1[nH]c1ccccc21.O=[N+]([O-])c1cc([N+](=O)[O-])c(O)c([N+](=O)[O-])c1	inactive: 1680
CCOC(=O)c1ccc(NP(C)(=O)Oc2cc(C)cc(C)c2)cc1 (stereo not given)	inactive: 1500
CP(=O)(Nc1cccc(Br)c1)Oc1ccccc1 (stereo not given)	inactive: 1380
O=[N+]([O-])c1cc([N+](=O)[O-])c(-n2nnc3ccccc32)c([N+](=O)[O-])c1	inactive: 1670
CP(=O)(Nc1ccc(SC(F)(F)F)cc1)Oc1ccccc1 (stereo not given)	inactive: 1450
CCCOc1ccc(NP(C)(=O)Oc2ccc(Cl)cc2)cc1 (stereo not given)	inactive: 1460
CN1CCCCC1COC(=O)C1(O)c2ccccc2CCc2ccccc21 (stereo not given)	inactive: 1660
